# Data: PubChem BioAssay AID687016 (The Scripps Research Institute Molecular Screening Center, 2013)
# Amino acid sequences for entries named in this document (tags omitted).
# UniProt Q96T88, whole entry: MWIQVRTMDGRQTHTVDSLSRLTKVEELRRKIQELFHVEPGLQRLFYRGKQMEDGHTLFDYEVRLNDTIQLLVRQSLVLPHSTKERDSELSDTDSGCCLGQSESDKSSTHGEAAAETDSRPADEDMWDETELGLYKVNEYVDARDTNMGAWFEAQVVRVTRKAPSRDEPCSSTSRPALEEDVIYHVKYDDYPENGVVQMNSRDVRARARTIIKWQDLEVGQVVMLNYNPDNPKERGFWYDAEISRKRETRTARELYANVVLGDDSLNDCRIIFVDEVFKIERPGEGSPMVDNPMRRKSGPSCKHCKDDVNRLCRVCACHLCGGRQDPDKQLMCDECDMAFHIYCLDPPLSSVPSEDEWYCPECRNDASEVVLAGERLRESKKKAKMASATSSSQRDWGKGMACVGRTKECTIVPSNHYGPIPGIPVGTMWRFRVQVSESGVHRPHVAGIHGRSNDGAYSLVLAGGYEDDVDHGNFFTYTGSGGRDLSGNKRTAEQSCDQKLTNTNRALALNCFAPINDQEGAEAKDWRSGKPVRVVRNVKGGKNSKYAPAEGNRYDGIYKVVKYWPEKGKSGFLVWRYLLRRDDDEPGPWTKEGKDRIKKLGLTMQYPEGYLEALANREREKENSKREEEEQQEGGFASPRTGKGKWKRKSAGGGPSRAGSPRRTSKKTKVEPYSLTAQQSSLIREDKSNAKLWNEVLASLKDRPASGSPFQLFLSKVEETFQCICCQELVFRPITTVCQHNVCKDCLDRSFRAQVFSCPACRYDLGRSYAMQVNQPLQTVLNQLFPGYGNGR
# The list shows a part of the results, in another mix than the full data. Activity calls are given as the source filed them. Rule as the data show it: active = inhibition above about 21%; inactive = the rest.
# Target: E3 ubiquitin-protein ligase UHRF1 (Homo sapiens) (UniProt Q96T88)
# Assay: UHRF1 methylated DNA binding inhibitors, primary screen, counter-screen for MBD2 inhibitor project, biochemical, TR-FRET, human UHRF1, single concentration (AID 687016);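 also: UHRF1 SRA domain binding a hemimethylated CpG hairpin DNA probe; 0% = median of test compound wells and 100% = reference inhibitor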
# Conditions: UHRF1 binding to methylated oligo, at 4.4 µM, active compounds read high
row,SMILES,inhibition
1,CCC(=O)N(c1ccccc1)C1(COC)CCN(CCn2nnn(CC)c2=O)CC1,inactive: 1.34%
2,CCC(=O)N(c1ccccc1)C1(COC)CCN(CCc2cccs2)CC1,inactive: -1.96%
